The target in experiment [1] is Muscarinic acetylcholine receptor M2 (Homo sapiens, UniProt P08172). Briefly: biochemical. It counts as cell-based, CHO.
In experiment [2] the target is Muscarinic acetylcholine receptor M4 (Homo sapiens, UniProt P08173). Briefly: biochemical. The format is cell-based, CHO.

Chains of the proteins cited; added tags and fusions are not shown.
UniProt P08172, whole entry: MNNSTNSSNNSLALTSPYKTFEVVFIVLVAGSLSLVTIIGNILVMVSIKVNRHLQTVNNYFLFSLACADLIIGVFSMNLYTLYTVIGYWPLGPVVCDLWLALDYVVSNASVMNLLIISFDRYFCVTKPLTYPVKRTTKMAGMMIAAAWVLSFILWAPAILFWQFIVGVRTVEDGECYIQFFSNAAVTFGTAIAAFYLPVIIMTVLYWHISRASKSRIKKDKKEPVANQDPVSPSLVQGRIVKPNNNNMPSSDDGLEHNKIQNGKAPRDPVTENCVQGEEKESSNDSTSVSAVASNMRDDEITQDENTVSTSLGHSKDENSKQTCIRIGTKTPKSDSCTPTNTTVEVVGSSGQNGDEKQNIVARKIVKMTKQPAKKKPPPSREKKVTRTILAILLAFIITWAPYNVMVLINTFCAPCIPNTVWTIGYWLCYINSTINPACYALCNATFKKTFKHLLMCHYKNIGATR
UniProt P08173, whole entry: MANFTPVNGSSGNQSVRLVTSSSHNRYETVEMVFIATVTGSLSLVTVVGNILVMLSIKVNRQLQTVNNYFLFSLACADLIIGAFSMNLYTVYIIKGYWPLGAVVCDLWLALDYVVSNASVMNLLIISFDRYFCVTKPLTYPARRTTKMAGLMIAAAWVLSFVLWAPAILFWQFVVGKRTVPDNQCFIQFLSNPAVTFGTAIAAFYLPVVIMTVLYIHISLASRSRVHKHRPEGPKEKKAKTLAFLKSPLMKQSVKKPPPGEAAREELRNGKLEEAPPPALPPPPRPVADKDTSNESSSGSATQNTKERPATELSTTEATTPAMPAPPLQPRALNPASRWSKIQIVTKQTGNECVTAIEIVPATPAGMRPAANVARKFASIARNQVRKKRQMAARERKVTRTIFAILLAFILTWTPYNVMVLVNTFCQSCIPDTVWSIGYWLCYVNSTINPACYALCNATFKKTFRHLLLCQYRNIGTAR

On to `CCN1CCC(c2ccccc2)=C(C(=O)OCCc2ccc(OC)cc2)C1`, for which the IC50 in experiment [1] is 38.5 µM; in experiment [2] it was 42.3 µM.

For the origin of these results see ChEMBL document CHEMBL1132561, “Identification and characterization of m1 selective muscarinic receptor antagonists1” (J Med Chem, 1999).
